{"sequences": {"note": "The chains behind the UniProt entries cited, without tags or fusion partners. Residues count along the entry.", "UniProt O60896, 24-148": "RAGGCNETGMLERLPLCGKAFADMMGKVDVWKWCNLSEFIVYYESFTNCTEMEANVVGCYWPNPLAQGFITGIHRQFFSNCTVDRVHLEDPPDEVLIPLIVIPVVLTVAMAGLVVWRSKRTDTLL"}, "source": "patent US12018059B2", "about": "“Human amylin analog polypeptides and methods of use” (Intarcia Therapeutics, Inc., priority 2018, dated 2024)", "key": {"[1]": {"biological_target": "human amylin 3 receptor (hAMY3R) (Homo sapiens, UniProt O60896+P30988)", "assay": "cAMP accumulation functional assay in HEK293-CNG cells expressing hAMY3R", "type": "cell-based", "conditions": "presence versus absence of HSA (FIG. 2C)", "description": "(§1) In the presence of the non-specific cAMP/cGMP phosphodiesterase inhibitor 3-isobutyl-1-methylxanthine (IBMX), accumulating cAMP can be measured in vitro using common detection methods. Thus, it is possible to estimate an in vitro potency (pEC50) for peptides activating each of these receptors using fit dose-response curves for cAMP accumulation.\n(§2) Cells were carried in growth media for no more than 10 passages prior to testing.\nPeptides were serially diluted in the same buffer as above for each given assay condition. Two assay control solutions consisting of 50 mcM forskolin (cAMP system maximum) or assay buffer only (cAMP system minimum) were also prepared in the appropriate stimulation buffers. Five microliters of each peptide-concentration, or assay control was added to triplicate wells and incubated for thirty minutes at room temperature. […] Plates were read on an Envision fluorescent plate reader (PerkinElmer).\nTest values were first normalized to the forskolin induced cAMP system maximum and system minimum averaged values in Excel using the formula: (test value−system minavg)/(system maxavg−system minavg)*100. […] Normalized data was analyzed from triplicate tests and used to estimate the EC50 for each peptide on each receptor. […]"}, "[2]": {"biological_target": "T1, human calcitonin receptor (hCTR) (Homo sapiens, UniProt P30988)", "T1 sequence (P30988 25-474)": "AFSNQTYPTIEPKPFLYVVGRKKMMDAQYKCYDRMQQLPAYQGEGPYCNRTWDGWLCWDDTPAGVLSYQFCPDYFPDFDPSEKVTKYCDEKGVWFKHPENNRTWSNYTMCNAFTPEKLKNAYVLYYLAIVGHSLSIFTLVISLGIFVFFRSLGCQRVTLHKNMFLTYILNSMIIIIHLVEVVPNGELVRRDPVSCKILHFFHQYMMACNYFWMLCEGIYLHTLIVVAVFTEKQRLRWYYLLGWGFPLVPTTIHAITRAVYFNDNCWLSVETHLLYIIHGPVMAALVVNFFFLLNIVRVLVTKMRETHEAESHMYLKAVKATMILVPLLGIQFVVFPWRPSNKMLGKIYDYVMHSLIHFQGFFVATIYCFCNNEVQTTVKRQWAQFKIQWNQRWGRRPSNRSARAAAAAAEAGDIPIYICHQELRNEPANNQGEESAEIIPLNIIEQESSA", "assay": "cAMP accumulation functional assay in HEK293-CNG cells expressing hCTR", "type": "cell-based", "description": "as §1, §2\nPeptides were serially diluted in the same buffer as above for each given assay condition. Two assay control solutions consisting of 50 mcM forskolin (cAMP system maximum) or assay buffer only (cAMP system minimum) were also prepared in the appropriate stimulation buffers. Five microliters of each peptide-concentration, or assay control was added to triplicate wells and incubated for thirty minutes at room temperature. During this incubation step a 4× europium labelled cAMP tracer solution and a 4× Ulight®-anti-cAMP solution (consisting of an anti-cAMP monoclonal antibody labelled with Ulight™ dye) was prepared according to the manufacturer's protocol (PerkinElmer LANCE Ultra cAMP kit). Following this incubation, 5 mcL europium labelled cAMP and 5 mcL Ulight anti-cAMP antibody was added to wells. The plate was covered with an adhesive cover to prevent evaporation and incubated for 60 minutes at room temperature in the dark. Plates were read on an Envision fluorescent plate reader (PerkinElmer).\nTest values were first normalized to the forskolin induced cAMP system maximum and system minimum averaged values in Excel using the formula: (test value−system minavg)/(system maxavg−system minavg)*100. Normalized test values represent a baseline corrected percentage of the system maximum cAMP response induced by forskolin. Normalized data was analyzed from triplicate tests and used to estimate the EC50 for each peptide on each receptor. Data was fit in GraphPad Prism software (v7.04) using a 4-parameter logistic curve model: Y=Bottom+(Top−Bottom)/(1+10^((Log EC50−X))). The Hill slope was constrained to 1.0. […]"}, "[3]": {"conditions": "in humans; cited from earlier work"}}, "note": "Like-named read-outs stand apart in the source and are kept apart here.", "data": [{"compound": "CC[C@H](C)[C@H](NC(=O)[C@@H]1CCCN1C(=O)CNC(=O)[C@H](Cc1ccccc1)NC(=O)[C@H](CC(N)=O)NC(=O)[C@H](CC(N)=O)NC(=O)[C@H](CO)NC(=O)[C@H](CO)NC(=O)[C@H](Cc1c[nH]cn1)NC(=O)[C@@H](NC(=O)[C@H](CC(C)C)NC(=O)[C@H](Cc1ccccc1)NC(=O)[C@H](CC(N)=O)NC(=O)[C@H](C)NC(=O)[C@H](CC(C)C)NC(=O)[C@H](CCCNC(=N)N)NC(=O)[C@H](CCC(N)=O)NC(=O)[C@@H](NC(=O)[C@H](C)NC(=O)[C@@H]1CSSC[C@H](NC(=O)[C@@H](N)CCCCN)C(=O)N[C@@H](CC(N)=O)C(=O)N[C@@H]([C@@H](C)O)C(=O)N[C@@H](C)C(=O)N[C@@H]([C@@H](C)O)C(=O)N1)[C@@H](C)O)C(C)C)C(=O)N[C@@H](CC(C)C)C(=O)N1CCC[C@H]1C(=O)N1CCC[C@H]1C(=O)N[C@H](C(=O)N[C@@H](CC(N)=O)C(=O)N[C@H](C(=O)NCC(=O)N[C@@H](CO)C(=O)N[C@@H](CC(N)=O)C(=O)N[C@H](C(=O)N[C@@H](Cc1ccc(O)cc1)C(N)=O)[C@@H](C)O)C(C)C)[C@@H](C)O", "note": "[Pramlintide, pramlintide, reference compound]", "values": [{"measurement": "effect of HSA on potency at hAMY3R", "setting": "[1]", "value": "unaffected by the presence of HSA"}, {"measurement": "EC50", "setting": "[2]; hCTR 0% HSA, 0% HSA, read-out: pEC50 hCTR 0% HSA (converted)", "value": 3.98, "unit": "pM"}, {"measurement": "EC50", "setting": "[2]; hCTR 0.1% HSA, 0.1% HSA", "value": 6.31, "unit": "pM"}, {"measurement": "EC50", "setting": "[2]; hCTR 4% HSA, 4% HSA, read-out: pEC50 hCTR 4% HSA (converted)", "value": 7.94, "unit": "pM"}, {"measurement": "half-life", "setting": "[3]", "value": "approximately 48 minutes"}]}]}
